Experimental data reported in patent publication EP0078757A1, “Imines of 2-(4-phenyl-piperazinylethyl) anilines, process for their preparation and their use in medicine” (CORTIAL S.A., priority 1981, dated 1983).

Experiments:
souris Swiss [1] = assay: Oral (intragastric) toxicity, mortality in mice; details: mouse, tested form: citrate; for DL 50: Bliss method, limits in brackets; for % de mortalité en fonction de la dose exprimée en mg/kg: solvent as in the source
souris Swiss [2] = assay: Intraperitoneal toxicity, mortality in mice; details: mouse, in tween, Bliss method, limits in brackets, tested form: citrate
[3] = test system: anaphylaxie passive cutanée; assay: Passive cutaneous anaphylaxis test in rats; type: in vivo, rats mâles Sprague Dawley; details: rat, given 10 min before challenge, decrease of Evans blue in the papule, limits in brackets, tested form: citrate; for DE 50 voie ip: intraperitoneal route
Experimental: L'activité antiallergique a été déterminée dans le test de l'anaphylaxie passive cutanée de la façon suivante. On administre à des rats mâles Sprague Dawley par voie intradermique 0,1 ml de sérum riche en IgE. Ce sérum a été fabriqué en sensibilisant des rats Sprague-Dawley par une injection ip d'ovalbumine et de suspension de Bordetella pertusis suivie 20 j après par une nouvelle injection d'ovalbumine. 24 heures après administration du sérum on injecte par voie iv 0,5 ml d'une solution contenant 8,25 mg/kg d'ovalbumine et 26,4 mg/kg de bleu d'Evans dans un tampon pH 7,05. Au bout de 30 mn les animaux sont sacrifiés; chaque papule est découpée, pesée et mise à incuber pendant 4 j à 37°C dans 15 g de formamide. La quantité de bleu d'Evans contenue dans chaque papule est déterminée par la mesure de la densité optique du mélange. Le produit à tester est administré par voie orale ou intrapéritonéale en suspension homogène en présence de tween 80, 10 mn avant l'injection déclenchante. Son activité est appréciée par le pourcentage de diminution de la quantité de bleu d'Evans ayant diffusé dans la papule. Les DE 50 de certains produits de la présente invention sont indiquées dans le tableau V.

motilité chez la souris = assay: Motility (actimeter) in mice, sedative effect; type: in vivo; details: ip route, mouse, Litchfield Wilcoxon method, tested form: citrate
Excerpt: L'effet des substances sur la motilité est appréciée chez la souris en utilisant un actimètre. Les animaux sont placés dans la cage d'activométrie et à partir du nombre de déplacements enregistrés par l'appareil,on obtient pour chaque dose considérée le pourcentage de l'effet observé par rapport au lot témoin. Ces pourcentages sont reportés sur un papier à l'échelle log-probit et la méthode de Litchfield Wilcoxon permet de calculer la dose efficace 50 sédative. Le tableau VI donne les DE 50 sédatives pour un certain nombre de produits faisant l'objet de l'invention.

Structure (SMILES)	DL 50 (souris Swiss [1])	% de mortalité en fonction de la dose exprimée en mg/kg (souris Swiss [1]; dose 500 mg/kg) [%]	% de mortalité en fonction de la dose exprimée en mg/kg (souris Swiss [1]; dose 750 mg/kg) [%]	% de mortalité en fonction de la dose exprimée en mg/kg (souris Swiss [1]; dose 1000 mg/kg) [%]	DL 50 (souris Swiss [2])	DE 50 voie po [3]	DE 50 sédation (motilité chez la souris) [mg/kg]	% de mortalité en fonction de la dose exprimée en mg/kg (souris Swiss [1]; dose 300 mg/kg) [%]	DE 50 voie ip [3]
Cc1ccc(C=Nc2ccccc2CCN2CCN(c3ccccc3C)CC2)cc1	733 (623 - 863) mg/kg	10	70	80	330 ( 292 - 373) mg/kg	4,5 (3,2 - 6,3) mg/kg	12	–	–
Cc1ccccc1N1CCN(CCc2ccccc2N=Cc2ccco2)CC1	562 (489 - 644) mg/kg	50	70	100	–	5,34 (3,31 - 8,71) mg/kg	–	–	–
Cc1ccccc1N1CCN(CCc2ccccc2N=Cc2cccnc2)CC1	676 (578 - 791) mg/kg	20	50	100	185 ( 166 - 207) mg/kg	3,3 (1,35 - 8,13) mg/kg	7	–	–
Fc1ccc(N2CCN(CCc3ccccc3N=Cc3cccs3)CC2)cc1	–	0	–	0	–	6,29 (4,79 - 8,31) mg/kg	–	–	–
FC(F)(F)c1cccc(N2CCN(CCc3ccccc3N=Cc3ccccc3)CC2)c1	–	0	0	30	–	27,5 (20,8 - 36,3) mg/kg	–	–	–
COc1ccccc1N1CCN(CCc2ccccc2N=Cc2cccnc2)CC1	427 (384 - 474) mg/kg	75	–	–	–	13,3 (9,3 - 18,6) mg/kg	9	20	5,65 (3,24 - 9,77) mg/kg
FC(F)(F)c1cccc(N2CCN(CCc3ccccc3N=Cc3ccco3)CC2)c1	–	0	20	50	–	43 (32,3 - 56,2) mg/kg	–	–	–
Fc1ccc(N2CCN(CCc3ccccc3N=Cc3cccnc3)CC2)cc1	–	0	20	30	–	5,7 (3,7 - 8,5) mg/kg	4	–	–
Clc1ccc(N2CCN(CCc3ccccc3N=Cc3cccnc3)CC2)cc1	584 (536 - 637) mg/kg	20	90	100	187 (165 - 212) mg/kg	5 mg/kg	12	–	–
COc1ccccc1N1CCN(CCc2ccccc2N=Cc2ccc(C)cc2)CC1	523 (440 - 621) mg/kg	60	75	90	–	7,12(4,37 - 11,48) mg/kg	14	–	3,85 (2,95 - 5,13) mg/kg
Fc1ccc(N2CCN(CCc3ccccc3N=Cc3ccccc3)CC2)cc1	–	–	–	–	288 (260 - 318) mg/kg	9 mg/kg	6	–	–
COc1cc(C=Nc2ccccc2CCN2CCN(c3ccc(Cl)cc3)CC2)cc(OC)c1OC	666 (580 - 765) mg/kg	10	70	80	–	8,76 (4,07 - 18,62) mg/kg	–	–	–
Clc1ccc(N2CCN(CCc3ccccc3N=Cc3cccs3)CC2)cc1	–	0	–	0	–	17,09 (9,77 - 29,51) mg/kg	–	–	–
FC(F)(F)c1cccc(N2CCN(CCc3ccccc3N=Cc3cccnc3)CC2)c1	–	–	–	–	–	–	20	0	–
COc1cc(C=Nc2ccccc2CCN2CCN(c3ccc(F)cc3)CC2)cc(OC)c1OC	864 (807 - 926) mg/kg	0	30	90	–	7,82 (3,89 - 15,49) mg/kg	–	–	–
Cc1ccc(C=Nc2ccccc2CCN2CCN(c3ccccc3)CC2)cc1	792 (746 - 839) mg/kg	0	30	100	254 (236 - 274) mg/kg	8,0 (5,62 - 11,22) mg/kg	7	–	6,79 (4,79 - 9,55) mg/kg
